Laboratory results published in patent US20260000642A1 (Tay Therapeutics Limited, priority 2022, published 2026).

Tested on: rat anti-collagen IgG1 antibodies
Assay: CIA model: rat anti-collagen IgG1 antibodies in serum at day 21
Type: in vivo, Lewis rat
Conditions: day 21 serum, reference group (Dexamethasone or GSK620), individual animals

With `C[C@@H]1C[C@H]2[C@@H]3CCC4=CC(=O)C=C[C@]4(C)[C@@]3(F)[C@@H](O)C[C@]2(C)[C@@]1(O)C(=O)CO` [dexamethasone] the “Final Rat Anti-Collagen IgG1 Antibody Con.” value was 11736.83 units/ml.
